# Yeast mating assay 1: variants of the scFv Ab-14

Data: MIT Lincoln Laboratory AlphaSeq set, Engelhart et al. 2022, doi:10.1038/s41597-022-01779-4, as distributed in FLAb.

Binding partner: SARS-CoV-2 spike HR2 peptide, sequence PDVDLGDISGINAS.

Ab-14 is the parent antibody, in scFv form: VH, then the linker GGGGSGGGGSGGGGS, then VL. The heavy chain is unchanged in all variants.
VH: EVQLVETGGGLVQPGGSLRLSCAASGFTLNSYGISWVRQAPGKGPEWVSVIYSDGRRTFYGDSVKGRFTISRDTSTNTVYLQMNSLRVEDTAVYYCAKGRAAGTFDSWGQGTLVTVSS
VL: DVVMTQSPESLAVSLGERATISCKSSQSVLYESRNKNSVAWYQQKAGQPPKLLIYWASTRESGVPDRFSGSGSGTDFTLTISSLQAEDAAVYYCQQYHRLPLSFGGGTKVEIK

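The starting antibody came from a phage panning campaign against this peptide. The library (AAYL50) carries one to three amino acid substitutions per variant, with no insertions or deletions. The scFvs were displayed on barcoded MATa yeast, the peptide on MATalpha yeast. After mating in shaken culture at 30 °C for 16 h, diploids were selected and their barcode pairs sequenced. The ratio of observed to expected reads was calibrated, replicate by replicate, on BCL2-family standards whose Kd was known from biolayer interferometry. Mating was done three times.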

Variants are written as CDR1, CDR2 and CDR3 of the light chain (limits as in the source). Parent: KSSQSVLYESRNKNSVA, WASTRES, QQYHRLPLS. Affinities are written as log10 Kd with Kd in nM; a lower number is a better binder. "nd" means that the variant was in the library but no mating with the target was seen in that replicate; the authors take this as a sign of poor binding, and no number exists. As a blank, each scFv also met three strains without target: over library AAYL50, 18% of these pairings were detected, typically at 4.19 and seldom below 2.99. Also given: how often the same scFv was detected with the empty control strains, with their mean in brackets.

| CDR-L1 | CDR-L2 | CDR-L3 | replicates, log10 nM | empty controls |
|---|---|---|---|---|
| KVSQSLLMESRNKNSVA | WASTRES | QQYHRLPLS | -0.27 / 0.07 / -0.16 | 5 of 9 (5.55) |
| KSSQSVLYESRNSNSVA | WASTREQ | PQYHRLPLS | nd / nd / nd | 2 of 9 (3.99) |
| KSSQSVLYEHRNKTSVA | WASTRES | QQVHRLPLS | nd / 3.64 / nd | 2 of 9 (3.72) |
| KSSQSVLYESRNKNSVA | WASTRES | IQYHRLPLS | nd / nd / 4.37 | 0 of 9 |
| KSSQSVLYVSHNKNKVA | WASTRES | QQYHRLPLS | 3.44 / 3.69 / nd | 5 of 9 (4.09) |
| KSSQSVLYESRNKNSVA | WAAGRES | QQYHRFPLS | 5.54 / 4.16 / 3.27 | 2 of 9 (3.87) |
| KVSQSVLYESRNMNSVA | WASIRES | QQYHRLPLS | nd / nd / nd | 0 of 9 |
| KSSQSVLYESRNKTRVA | WASTREH | QQYHRLPLS | 6.23 / 5.44 / nd | 6 of 9 (4.45) |
| KSSISVRYESRNKNSVA | WASTLES | QQYHRLPLS | 2.48 / 2.07 / 2.34 | 1 of 9 (3.50) |
| KSSQSVYYESCNKNSVA | WASTRES | QQYNRLPLS | 1.40 / 1.25 / 1.16 | 1 of 9 (4.29) |
| KESQSVLYEMRNKNSQA | WASTRES | QQYHRLPLS | nd / nd / 4.44 | 2 of 9 (4.06) |
| ESSQSVLYESRYKNSQA | WASTRES | QQYHRLPLS | 4.19 / nd / 4.43 | 3 of 9 (4.39) |
| KSSQSVLYESRNKNSVA | WASTREY | QFYHRHPLS | 5.20 / nd / nd | 0 of 9 |
| KSSQSVLYEWRNKNSVY | WASTRES | EQYHRLPLS | 3.52 / nd / nd | 0 of 9 |
| SSSQSVTNESRNKNSVA | WASTRES | QQYHRLPLS | 0.64 / 1.25 / 1.09 | 2 of 9 (4.52) |
| KSDQSVLYESRNKNSVA | WASTRES | QQYHRLQLA | 1.48 / 1.73 / 1.73 | 3 of 9 (4.86) |
| KSSQSVLYESRNKNSVA | MASTCEP | QQYHRLPLS | nd / nd / nd | 0 of 9 |
| KSSQSVTYESQNKNSVA | WAKTRES | QQYHRLPLS | 1.23 / 1.30 / 1.34 | 1 of 9 (4.21) |
| KSSQSVLYERRNKNSVA | WFSTRES | QQYHCLPLS | nd / 3.77 / 4.50 | 4 of 9 (5.02) |
| KSSQSVGYESRNKNSVA | VASTRAS | QQYHRLPLS | 1.70 / 1.76 / 1.83 | 4 of 9 (4.71) |
| KSSQSVLYESRNKNSVA | YNSTRES | QQYHLLPLS | nd / 3.90 / 3.77 | 1 of 9 (3.73) |
| KSSQSVLYESRNKNSHS | WASTRES | QQYHRMPLS | 4.82 / 4.94 / 4.30 | 5 of 9 (4.33) |
| KSSKSVLYESRNKNSVA | WHSTRFS | QQYHRLPLS | nd / nd / nd | 0 of 9 |
| KSRQSVLYESRNKNSVA | WPSTRES | QHYHRLPLS | 6.53 / 4.58 / 4.70 | 4 of 9 (3.89) |
| FSSQSVLYESRNKNSVC | WASTRES | QFYHRLPLS | 5.26 / nd / 3.65 | 1 of 9 (4.32) |
| KSSQSVVYESRGKVSVA | WASTRES | QQYHRLPLS | 2.44 / 2.33 / 2.57 | 7 of 9 (4.24) |
| KSSQSVGYASRNKNSVA | WASTRES | QQYHRLPLS | 1.22 / 1.10 / 1.26 | 1 of 9 (4.06) |
| KSSQSVRYESRNKNIVA | WASTRES | QQYHRLPHS | nd / nd / nd | 2 of 9 (3.84) |
| KSDQSVLDESRNKNSVA | WASTRES | QQYHRLPLS | 0.52 / 0.62 / 0.46 | 1 of 9 (3.54) |
| KSSWSVLYESRNKNSSA | VASTRES | QQYHRLPLS | 5.87 / 5.21 / nd | 7 of 9 (4.66) |
| KSSQSVLYESRNKNSVA | WASTRWS | MQYHRLHLS | nd / nd / nd | 0 of 9 |
| KSSQSVHYESRNKNSVN | WASTMES | QQYHRLPLS | nd / 5.03 / 4.65 | 4 of 9 (4.49) |
| KSSQSVLYESRNKNSVA | WASQRES | QQYHVLSLS | nd / 4.62 / nd | 1 of 9 (4.99) |
| KSSQSVLYEYVNKNSVA | WASTRES | QQYHRLPLS | 0.98 / 1.15 / 1.53 | 1 of 9 (3.01) |
| KSLQSVLYESRNKNSVA | WASTRES | QQGHRLPLS | 1.64 / 1.79 / 1.66 | 5 of 9 (4.12) |
| KSSQSVLYEHPNKNSVL | WASTRES | QQYHRLPLS | nd / nd / nd | 0 of 9 |
| KSSQSVLYWSRNKNSVR | WASTRES | QFYHRLPLS | nd / nd / nd | 0 of 9 |
| NSSQSVLYESRNKNSVA | WASTRES | QQYCRLPLS | 2.01 / 2.27 / 2.47 | 3 of 9 (4.65) |

Again, the first 2 entries without any signal:

| CDR-L1 | CDR-L2 | CDR-L3 | replicates, log10 nM | empty controls |
|---|---|---|---|---|
| KSSQSVLYESRNSNSVA | WASTREQ | PQYHRLPLS | nd / nd / nd | 2 of 9 (3.99) |
| KVSQSVLYESRNMNSVA | WASIRES | QQYHRLPLS | nd / nd / nd | 0 of 9 |